In the experiment the target is NET (Rattus norvegicus, UniProt Q63380). Put plainly: Inhibition of [3H]norepinephrine reuptake at NET in rat brain synaptosomes. In kind it is biochemical.

The chains behind the UniProt entries cited, without tags or fusion partners. Residues count along the entry.
UniProt Q63380, 1-617: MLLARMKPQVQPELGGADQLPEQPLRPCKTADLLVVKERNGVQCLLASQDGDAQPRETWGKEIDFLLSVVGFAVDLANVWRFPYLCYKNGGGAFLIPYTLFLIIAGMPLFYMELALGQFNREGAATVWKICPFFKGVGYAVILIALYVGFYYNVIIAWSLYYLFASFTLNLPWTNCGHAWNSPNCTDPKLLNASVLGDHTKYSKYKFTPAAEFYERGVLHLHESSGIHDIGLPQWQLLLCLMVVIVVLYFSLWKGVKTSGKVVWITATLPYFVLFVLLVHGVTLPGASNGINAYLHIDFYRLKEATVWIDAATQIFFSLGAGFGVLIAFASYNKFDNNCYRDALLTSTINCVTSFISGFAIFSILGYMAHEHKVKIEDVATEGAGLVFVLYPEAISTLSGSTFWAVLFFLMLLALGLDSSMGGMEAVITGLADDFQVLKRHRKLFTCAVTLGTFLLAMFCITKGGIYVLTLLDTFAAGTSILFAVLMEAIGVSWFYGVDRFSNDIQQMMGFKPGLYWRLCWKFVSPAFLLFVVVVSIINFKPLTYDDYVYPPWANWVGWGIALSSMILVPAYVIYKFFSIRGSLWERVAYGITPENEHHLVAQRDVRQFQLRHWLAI

The structures appear in SMILES notation.

Data on one compound can be found in article PMC5349769 (ACS chemical neuroscience, 2015).

As a reminder, the IC50 is the concentration that inhibits the measured activity by half. A high value points to weaker potency in that assay.

In the case of `COC(=O)[C@H]1[C@@H](OC(=O)c2ccccc2)C[C@@H]2CC[C@H]1N2C` [(−)cocaine, cocaine, reference compound], the IC50 came to 0.396 ± 0.0478 µM.
